{"source": "PubChem BioAssay AID485313", "about": "(National Center for Advancing Translational Sciences (NCATS), 2010)", "note": "The list shows a part of the results, in another mix than the full data. Calls of active or inactive are those of the source. The call rests on the fitted dose curve; in most records, active means well fitted activation curve with a large enough effect; inconclusive means small, poorly fitted or top-dose-only effect; inactive means no such curve, though single readings can be large or run the other way.", "data": [{"experiment": "qHTS Assay for NPC1 Promoter Activators;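 further: reporter is driven by a mutant NPC1 promoter; % of control where 0% means no effect; nearly all actives have a fitted effect of over 60% in size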", "settings": "Huh7 NPC1 promoter luciferase reporter, 24 h; at 9.22 µM (top of the series)", "values": [{"smiles": "CP(=O)(Nc1ccc2c(c1)OCCO2)Oc1ccccc1", "note": "(centres undefined)", "activation": "inactive: -0.46%"}, {"smiles": "Cc1ccccc1NP(C)(=O)Nc1ccccc1C", "activation": "inactive: -0.617%"}, {"smiles": "CP(=O)(Nc1ccc(SC(F)(F)F)cc1)Oc1ccc(F)cc1", "note": "(centres undefined)", "activation": "inactive: 2.93%"}, {"smiles": "CCOP(C)(=S)SCC(=O)NC(C)(CC)C(=O)O", "note": "(centres undefined)", "activation": "inactive: -0.877%"}, {"smiles": "O=[N+]([O-])c1ccc(OP2(=O)COCCO2)cc1", "note": "(centres undefined)", "activation": "inactive: -1.79%"}, {"smiles": "Cc1cc(-c2cccc3ccccc23)c(C)cn1.O=[N+]([O-])c1cc([N+](=O)[O-])c(O)c([N+](=O)[O-])c1", "activation": "inactive: -1.99%"}, {"smiles": "COc1ccc(OP(C)(=O)Nc2cccc(Br)c2)cc1", "note": "(centres undefined)", "activation": "inactive: 0.638%"}, {"smiles": "CN(C)CCOC(=O)C(O)(c1ccccc1)C1CCCCC1", "note": "(centres undefined)", "activation": "inactive: 0.655%"}, {"smiles": "COc1ccc(NP(C)(=O)Oc2ccccc2OC)cc1", "note": "(centres undefined)", "activation": "inactive: -5.71%"}, {"smiles": "CCN(CC)CCCOC(=O)C(O)(c1ccccc1)C1CCCCC1", "note": "(centres undefined)", "activation": "inactive: 0.606%"}, {"smiles": "CP(=O)(Nc1ccccc1)Oc1ccc(F)cc1", "note": "(centres undefined)", "activation": "inactive: -1.09%"}, {"smiles": "CCCCCOc1ccc(NP(C)(=O)Oc2ccc(Cl)cc2Cl)cc1", "note": "(centres undefined)", "activation": "inactive: 0.931%"}, {"smiles": "CCOC(=O)c1ccc(NP(C)(=O)Oc2ccc(F)cc2)cc1", "note": "(centres undefined)", "activation": "inactive: -7.8%"}, {"smiles": "COc1ccc(OP(C)(=O)Nc2ccc(SC(F)(F)F)cc2)cc1", "note": "(centres undefined)", "activation": "inactive: -0.269%"}, {"smiles": "O=C(OCCN1CCN(CCOCc2ccccc2)CC1)C(O)(c1ccccc1)c1ccccc1", "activation": "inactive: -2.54%"}, {"smiles": "CP(=O)(Nc1ccccc1F)Oc1ccccc1", "note": "(centres undefined)", "activation": "inactive: -2.24%"}, {"smiles": "CC(C)c1ccc(OP(C)(=O)Nc2ccc(SC(F)(F)F)cc2)cc1", "note": "(centres undefined)", "activation": "inactive: -2.75%"}, {"smiles": "O=[N+]([O-])c1cc([N+](=O)[O-])c(Nc2ccccn2)c([N+](=O)[O-])c1", "activation": "inactive: -31.3%"}, {"smiles": "Cc1c(NP(C)(=O)Oc2ccc(C(C)C)cc2)c(=O)n(-c2ccccc2)n1C", "note": "(centres undefined)", "activation": "inactive: 1.88%"}, {"smiles": "CP(=O)(Nc1ccccn1)Oc1ccccc1", "note": "(centres undefined)", "activation": "inactive: -5.99%"}, {"smiles": "COc1ccccc1OP(C)(=O)Nc1ccc(C)cc1C", "note": "(centres undefined)", "activation": "inactive: -1.1%"}, {"smiles": "CCc1ccc(OP(C)(=O)O)cc1", "activation": "inactive: 0.423%"}, {"smiles": "COc1ccccc1OP(C)(=O)Nc1ccc(Br)cc1", "note": "(centres undefined)", "activation": "inactive: 1.79%"}, {"smiles": "COc1ccc(OP(C)(=O)Nc2ccccn2)cc1", "note": "(centres undefined)", "activation": "inactive: -2.51%"}, {"smiles": "CN(C)CCOC(=O)C(O)(c1ccccc1)C1CCCC1", "note": "(centres undefined)", "activation": "inactive: 11.5%"}, {"smiles": "CP(=O)(OCCOc1ccccc1)OCCOc1ccccc1", "activation": "inactive: 1.43%"}, {"smiles": "CP(=O)(Nc1ccc(Cl)cc1Cl)Oc1ccccc1", "note": "(centres undefined)", "activation": "inactive: -12.1%"}, {"smiles": "Cc1cc(C)cc(OP(C)(=O)Nc2cccc(C(F)(F)F)c2)c1", "note": "(centres undefined)", "activation": "inactive: -6%"}, {"smiles": "COc1ccccc1OP(C)(=O)Nc1ccc(C)c(C)c1", "note": "(centres undefined)", "activation": "inactive: 1.36%"}, {"smiles": "COc1ccc(OP(C)(=O)Nc2ccccc2Br)cc1", "note": "(centres undefined)", "activation": "inactive: -0.868%"}, {"smiles": "CCOC(=O)c1ccc(NP(C)(=O)Oc2ccc(Cl)cc2)cc1", "note": "(centres undefined)", "activation": "inactive: -2.24%"}, {"smiles": "CP(=O)(OC12CC3CC(CC(C3)C1)C2)OC12CC3CC(CC(C3)C1)C2", "activation": "inactive: -1.4%"}, {"smiles": "CC(C)(C)c1ccc(OP(C)(=O)O)cc1", "activation": "inactive: 3.39%"}, {"smiles": "COc1ccccc1OP(C)(=O)Nc1ccccc1Br", "note": "(centres undefined)", "activation": "inactive: -4.46%"}, {"smiles": "CP(=O)(Nc1ccc(Cl)cc1)Oc1ccc(F)cc1", "note": "(centres undefined)", "activation": "inactive: -1.36%"}, {"smiles": "CN(C)C(=O)c1c([N+](=O)[O-])cc([N+](=O)[O-])cc1[N+](=O)[O-]", "activation": "inactive: 0.286%"}, {"smiles": "CCN(CC)CC(O)COC(=O)C(O)(c1ccccc1)C1CCCCC1", "note": "(centres undefined)", "activation": "inactive: -3.37%"}, {"smiles": "COc1ccc(OP(C)(=O)Nc2ccc(Br)cc2)cc1", "note": "(centres undefined)", "activation": "inactive: 0.485%"}, {"smiles": "COc1ccccc1OP(C)(=O)Nc1c(C)n(C)n(-c2ccccc2)c1=O", "note": "(centres undefined)", "activation": "inactive: -22%"}, {"smiles": "O=C(OCCCN1CCCC1)C(O)(c1ccccc1)C1CCCCC1", "note": "(centres undefined)", "activation": "inactive: 2.42%"}, {"smiles": "CP(=O)(Oc1ccccc1)N1CCOC1=O", "note": "(centres undefined)", "activation": "inactive: -2.25%"}, {"smiles": "CCc1ccc(OP(C)(=O)Nc2cccnc2)cc1", "note": "(centres undefined)", "activation": "inactive: -5.39%"}, {"smiles": "CCOC(=O)c1ccc(NP(C)(=O)Oc2ccc(OC)cc2)cc1", "note": "(centres undefined)", "activation": "inactive: 4.68%"}, {"smiles": "CCOP(C)(=S)SCC(=O)NC(C)C(=O)O", "note": "(centres undefined)", "activation": "inactive: -1.98%"}, {"smiles": "CP(=O)(Nc1ccc(SC(F)(F)F)cc1)Oc1ccc(Cl)cc1", "note": "(centres undefined)", "activation": "inactive: 0.864%"}, {"smiles": "Cc1cccc(C)c1OP(C)(=O)Nc1ccc(SC(F)(F)F)cc1", "note": "(centres undefined)", "activation": "inactive: -4.45%"}, {"smiles": "CP(=O)(Oc1ccccc1)OC(c1ccccc1)C(F)(F)F", "note": "(centres undefined)", "activation": "inactive: -1.09%"}, {"smiles": "CCc1ccc(OP(C)(=O)N2CCN(c3ccc([N+](=O)[O-])cc3)CC2)cc1", "note": "(centres undefined)", "activation": "inactive: -0.899%"}, {"smiles": "CP(=O)(NC(=O)Nc1ccccc1)Oc1ccccc1", "note": "(centres undefined)", "activation": "inactive: 7.75%"}, {"smiles": "Cc1cc(C)cc(OP(C)(=O)Nc2ccc(SC(F)(F)F)cc2)c1", "note": "(centres undefined)", "activation": "inactive: -0.81%"}, {"smiles": "CP(=S)(Nn1cnnc1)Oc1ccccc1", "note": "(centres undefined)", "activation": "inactive: -4.86%"}, {"smiles": "CP(=O)(Nc1ccccc1Br)Oc1ccccc1", "note": "(centres undefined)", "activation": "inactive: -0.558%"}, {"smiles": "COc1ccccc1OP(C)(=O)Nc1ccccc1", "note": "(centres undefined)", "activation": "inactive: 1.28%"}, {"smiles": "COc1ccccc1OP(C)(=O)Nc1ccc(C)cc1", "note": "(centres undefined)", "activation": "inactive: -4.31%"}, {"smiles": "Cc1ccc(NP(C)(=O)Oc2ccccc2)c(C)c1", "note": "(centres undefined)", "activation": "inactive: 19.5%"}, {"smiles": "CCOC(=O)c1ccc(NP(C)(=O)Oc2ccccc2)cc1", "note": "(centres undefined)", "activation": "inactive: -1.63%"}, {"smiles": "Cc1cc(C)cc(OP(C)(N)=O)c1", "note": "(centres undefined)", "activation": "inactive: 2.79%"}, {"smiles": "COc1ccccc1OP(C)(=O)Nc1cc(Cl)ccc1C", "note": "(centres undefined)", "activation": "inactive: -4.71%"}, {"smiles": "COc1ccc(OP(C)(=O)Nc2cccc(F)c2)cc1", "note": "(centres undefined)", "activation": "inactive: -2.35%"}, {"smiles": "O=[N+]([O-])c1cc([N+](=O)[O-])c(Nc2cccnc2)c([N+](=O)[O-])c1", "activation": "inactive: 6.5%"}, {"smiles": "O=[N+]([O-])c1ccc2c(c1)C=Nc1ccccc1O2", "activation": "inactive: -11.1%"}, {"smiles": "CC(C)(C)c1ccc(OP(C)(=O)Nc2ccc(SC(F)(F)F)cc2)cc1", "note": "(centres undefined)", "activation": "inactive: -2.87%"}, {"smiles": "Cc1cccc(C)c1OP(C)(N)=O", "note": "(centres undefined)", "activation": "inactive: -4.39%"}, {"smiles": "CCN(CC)CCCOC(=O)C(O)(c1ccccc1)c1ccccc1", "activation": "inactive: 1.66%"}, {"smiles": "Cc1ccc(C)c(NP(C)(=O)Oc2ccccc2)c1", "note": "(centres undefined)", "activation": "inactive: -0.276%"}, {"smiles": "CP(=O)(Nc1cccc(Br)c1)Oc1ccccc1", "note": "(centres undefined)", "activation": "inactive: -4.55%"}, {"smiles": "Cc1cc(C)cc(OP(C)(=O)Nc2ccccn2)c1", "note": "(centres undefined)", "activation": "inactive: -0.632%"}, {"smiles": "COc1ccccc1OP(C)(=O)Nc1cccc(Br)c1", "note": "(centres undefined)", "activation": "inactive: 0.209%"}, {"smiles": "CCOC(=O)c1ccc(NP(C)(=O)Oc2cc(C)cc(C)c2)cc1", "note": "(centres undefined)", "activation": "inactive: -3.93%"}, {"smiles": "Cc1cc(C)cc(OP(C)(=O)Nc2ccc(C)cc2C)c1", "note": "(centres undefined)", "activation": "inactive: 0.156%"}, {"smiles": "CC1=NCCc2c1[nH]c1ccccc21.O=[N+]([O-])c1cc([N+](=O)[O-])c(O)c([N+](=O)[O-])c1", "activation": "inactive: 1.88%"}, {"smiles": "CN1CCCCC1COC(=O)C1(O)c2ccccc2CCc2ccccc21", "note": "(centres undefined)", "activation": "inactive: -0.13%"}, {"smiles": "COc1ccccc1OP(C)(=O)Nc1c(C)cccc1C", "note": "(centres undefined)", "activation": "inactive: -0.682%"}, {"smiles": "CP(=O)(Nc1ccc(SC(F)(F)F)cc1)Oc1ccccc1", "note": "(centres undefined)", "activation": "inactive: -5.2%"}, {"smiles": "CCCOc1ccc(NP(C)(=O)Oc2ccc(Cl)cc2)cc1", "note": "(centres undefined)", "activation": "inactive: 1.98%"}, {"smiles": "O=[N+]([O-])c1cc([N+](=O)[O-])c(Nc2nnnn2CCO)c([N+](=O)[O-])c1", "activation": "inactive: -2.22%"}, {"smiles": "CC1=C2N=C(C=C3N=C(C(C)=C4[N-][C@@](C)([C@@H]5N=C1[C@](C)(CCC(=O)NC[C@@H](C)OP(=O)([O-])O[C@H]1[C@@H](O)[C@@H](n6cnc7cc(C)c(C)cc76)O[C@@H]1CO)[C@H]5CC(N)=O)[C@@](C)(CC(N)=O)[C@@H]4CCC(N)=O)[C@@](C)(CC(N)=O)[C@@H]3CCC(N)=O)C(C)(C)[C@@H]2CCC(N)=O.[C-]#N.[Co+3]", "activation": "inactive: -20.7%"}, {"smiles": "Cc1nc2ccc3ccccc3c2s1.O=[N+]([O-])c1cc([N+](=O)[O-])c(O)c([N+](=O)[O-])c1", "activation": "inactive: -3.62%"}, {"smiles": "O=[N+]([O-])c1cc([N+](=O)[O-])c(-n2nnc3ccccc32)c([N+](=O)[O-])c1", "activation": "inactive: -5.63%"}]}]}
